Measurements: patent US11999723B2, “Pyrazole-containing macrophage migration inhibitory factor inhibitors” (priority 2018, dated 2024)

Chains of the proteins cited; added tags and fusions are not shown. Residues count along the entry.
UniProt P14174, 2-115 limits assumed: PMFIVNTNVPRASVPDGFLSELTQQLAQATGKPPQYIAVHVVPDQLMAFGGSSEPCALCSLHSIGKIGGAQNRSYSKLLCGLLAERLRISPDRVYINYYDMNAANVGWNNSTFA

Molecular target: MIF (Homo sapiens (Human), UniProt P14174)
Assay: HPP tautomerase assay (inhibition of the tautomerase activity of MIF)
Assay type: biochemical
Conditions: read-out: Ki values; literature compounds tested in a tautomerase inhibition assay

COc1ccc(N2Cc3ccc(O)cc3OC2=O)cc1
Ki: 30 nM
